Test results taken from BindingDB's records for 2172538.

Amino acid sequences for entries named in this document (tags omitted).
UniProt Q99720, whole entry: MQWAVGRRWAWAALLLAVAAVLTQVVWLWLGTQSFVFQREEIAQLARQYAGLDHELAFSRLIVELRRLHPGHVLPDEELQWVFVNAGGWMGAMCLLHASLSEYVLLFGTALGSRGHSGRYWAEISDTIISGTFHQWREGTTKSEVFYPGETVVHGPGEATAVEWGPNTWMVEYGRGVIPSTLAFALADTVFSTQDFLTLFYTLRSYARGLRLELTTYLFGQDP

target: Sigma non-opioid intracellular receptor 1 (Homo sapiens, UniProt Q99720); test: ASSAY_NAME: ChEMBL_201137 (CHEMBL803878) DESCRIPTION: Binding affinity for sigma opioid receptor using [3H](+)-3-PPP as radioligand

Row | SMILES | IC50
1 | CN(C(=O)CCCOc1ccc(Cl)cc1Cl)C1CCCC[C@H]1N1CCCC1 (some centres not stated) | 418 nM
2 | CN(C(=O)COc1ccc(Cl)cc1Cl)C1CCCC[C@@H]1N1CCCC1 (some centres not stated) | 76 nM
3 | COc1cc(CC(=O)N(C)C2CCCC[C@@H]2N2CCCC2)cc(OC)c1OC (some centres not stated) | 302 nM
4 | COc1cc(CCC(=O)N(C)C2CCCC[C@@H]2N2CCCC2)cc(OC)c1OC (some centres not stated) | 2670 nM
5 | COc1ccc(CC(=O)N(C)C2CCCC[C@@H]2N2CCCC2)cc1 (some centres not stated) | 196 nM
6 | CN(C(=O)COc1cccc(Cl)c1Cl)C1CCCC[C@@H]1N1CCCC1 (some centres not stated) | 42 nM
7 | CN(C(=O)CSc1ccccc1)C1CCCC[C@@H]1N1CCCC1 (some centres not stated) | 200 nM
8 | COc1cccc(CC(=O)N(C)C2CCCC[C@@H]2N2CCCC2)c1 (some centres not stated) | 211 nM
9 | CN(C(=O)/C=C/c1ccc(Cl)c(Cl)c1)C1CCCC[C@@H]1N1CCCC1 (some centres not stated) | 3650 nM
10 | CN(C(=O)COc1ccccc1)C1CCCC[C@@H]1N1CCCC1 (some centres not stated) | 1250 nM
11 | COc1ccccc1CC(=O)N(C)C1CCCC[C@@H]1N1CCCC1 (some centres not stated) | 208 nM
12 | CN(C(=O)COc1ccc(Cl)c(Cl)c1)C1CCCC[C@@H]1N1CCCC1 (some centres not stated) | 110 nM

Only a part of the results on these compounds is given; other tests are left out.
